## Yeast mating assay 2: variants of the scFv Ab-95

Source: Engelhart et al. 2022 (doi:10.1038/s41597-022-01779-4), MIT Lincoln Laboratory and A-Alpha Bio; data file from the FLAb repository.

Target peptide (SARS-CoV-2 spike, HR2 region): PDVDLGDISGINAS

The variants keep the heavy chain, the linker and the frameworks of Ab-95 (scFv order VH, the linker GGGGSGGGGSGGGGS, VL).
VH: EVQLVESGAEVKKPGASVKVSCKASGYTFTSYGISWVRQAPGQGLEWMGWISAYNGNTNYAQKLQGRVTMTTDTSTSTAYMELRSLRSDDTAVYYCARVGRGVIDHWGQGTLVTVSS
VL: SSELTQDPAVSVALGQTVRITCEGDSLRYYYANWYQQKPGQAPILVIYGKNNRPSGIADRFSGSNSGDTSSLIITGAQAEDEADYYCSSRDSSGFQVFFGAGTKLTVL

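The parent was found by panning a naive human phage display library on the peptide. Variants in AAYL52 differ from the parent at up to three CDR positions; double and triple changes were sampled at random. The assay is AlphaSeq: two haploid yeast populations carry antibody and antigen on their surface. Binding brings cells together so that they mate, and sequencing counts the barcode pairs among the diploids. Read counts were normalised to the haploid input and turned into Kd by a linear fit to BCL2-family pairs of known affinity, for each replicate. Mating was done three times.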

Positions count from residue 1 of the parent VL; L27Q puts Q in place of L. This list gathers variants with a substitution at S89 (VL, numbered from residue 1). Scale: log10 of Kd in nM, estimated from mating counts; low values are strong binders. "nd" marks a missing value. The strain was present, yet no cells mated with the target were sequenced in that replicate, which points to weak or no binding. Three control strains display no target. For library AAYL52, 28% of the pairings with them gave a signal, with a median of 3.91 and one signal in twenty below 2.90, so weak values seen in few replicates may be background. Also given: how often the same scFv was detected with the empty control strains.

Variant L27Q+R53N+S89E showed 3.66, 5.37, nd (controls 4 of 9).
Variant S89A+S93L+Q96V showed nd, nd, nd (controls 0 of 9).
Variant R28E+N52G+S89Q showed 2.97, 3.42, 2.49 (controls 1 of 9).
Variant S55Q+S89L showed 1.41, 1.54, 0.95 (controls 2 of 9).
Variant S89N+S93I+F95V showed 3.65, nd, 4.35 (controls 1 of 9).
Variant N52D+S55Y+S89V showed 2.30, 2.32, 1.84 (controls 3 of 9).
Variant R53A+S88Q+S89Q showed nd, nd, nd (controls 2 of 9).
Variant S26H+G49D+S89Q showed 3.07, 3.70, 3.25 (controls 2 of 9).
Variant R28E+K50G+S89M showed 3.40, 2.45, 2.36 (controls 2 of 9).
Variant E23R+R53S+S89F showed 1.96, 1.98, 1.56 (controls 4 of 9).
Variant K50G+N52E+S89L showed 3.22, 2.81, 3.84 (controls 4 of 9).
Variant Y31R+N51Y+S89V showed nd, 3.95, 3.95 (controls 0 of 9).
Variant S55R+S89A+V97E showed 3.49, 3.13, 2.39 (controls 2 of 9).
Variant A32I+S89L+G94N showed nd, nd, nd (controls 1 of 9).
Variant Y30T+S89I+R90S showed nd, 4.11, nd (controls 3 of 9).
Variant R28T+S89R showed nd, nd, nd (controls 0 of 9).
Variant L27H+A32K+S89T showed 4.17, nd, nd (controls 3 of 9).
Variant S89E+R90F+S93H showed nd, nd, nd (controls 0 of 9).
Variant R53F+S89C+F98M showed nd, nd, 3.93 (controls 0 of 9).
Variant N33L+S89M+F98Q showed 3.33, 3.83, nd (controls 1 of 9).
Variant S89E+R90P+G94F showed 2.45, 2.78, 2.34 (controls 5 of 9).
Variant R28D+S89L+S93D showed nd, 4.20, nd (controls 4 of 9).
Variant E23V+G24W+S89A showed 3.65, 3.39, 3.44 (controls 2 of 9).
Variant L27D+N33Y+S89W showed nd, nd, nd (controls 1 of 9).
Variant S89P+R90K+G94P showed 5.06, 4.62, nd (controls 2 of 9).
Variant Y29E+N33Q+S89R showed 4.90, nd, nd (controls 3 of 9).
Variant R28G+N52W+S89C showed 2.28, 2.52, 3.07 (controls 3 of 9).
Variant Y30E+S89W+D91H showed nd, 3.17, nd (controls 2 of 9).
Variant R28H+R53G+S89T showed nd, nd, nd (controls 0 of 9).
Variant Y31T+K50N+S89T showed 1.91, 1.87, 1.23 (controls 1 of 9).
Variant S88V+S89E+D91R showed 4.96, nd, nd (controls 1 of 9).
Variant D25S+S26F+S89T showed 2.96, 2.85, 3.13 (controls 6 of 9).
Variant S89A+V97C showed 3.50, 3.67, 3.09 (controls 1 of 9).
Variant Y30D+S89K+G94T showed nd, nd, nd (controls 0 of 9).
Variant K50E+S89Q+G94H showed 4.02, nd, nd (controls 1 of 9).
Variant Y30Q+S89L showed 2.02, 1.88, 2.09 (controls 3 of 9).
Variant Y31G+R53I+S89F showed 3.34, 3.20, nd (controls 1 of 9).
Variant A32S+S89N+V97I showed nd, nd, nd (controls 1 of 9).
Variant G24I+S89K+Q96T showed 3.83, nd, nd (controls 2 of 9).
Variant S55A+S89K+V97Q showed 3.35, 3.35, 3.79 (controls 5 of 9).
Variant Y29M+P54L+S89N showed 4.19, 2.71, nd (controls 1 of 9).
Variant Y31C+S89C+S92N showed 2.66, 2.36, 2.39 (controls 5 of 9).

A selection of 4 entries from above:

The variant S88V+S89E+D91R showed 4.96, nd, nd (controls 1 of 9).
The variant S89N+S93I+F95V showed 3.65, nd, 4.35 (controls 1 of 9).
The variant Y30Q+S89L showed 2.02, 1.88, 2.09 (controls 3 of 9).
The variant Y31C+S89C+S92N showed 2.66, 2.36, 2.39 (controls 5 of 9).

For reference, the parent read 2.31 as the reference entry and 2.25 as a member of this library.